1 compound from patent US4318858A, “Thioethylamide derivatives” (Shionogi & Co., Ltd., priority 1979, dated 1982) can be followed below.

By UniProt entry, the sequences of proteins in these tests, tags left out.
UniProt P47747, whole entry: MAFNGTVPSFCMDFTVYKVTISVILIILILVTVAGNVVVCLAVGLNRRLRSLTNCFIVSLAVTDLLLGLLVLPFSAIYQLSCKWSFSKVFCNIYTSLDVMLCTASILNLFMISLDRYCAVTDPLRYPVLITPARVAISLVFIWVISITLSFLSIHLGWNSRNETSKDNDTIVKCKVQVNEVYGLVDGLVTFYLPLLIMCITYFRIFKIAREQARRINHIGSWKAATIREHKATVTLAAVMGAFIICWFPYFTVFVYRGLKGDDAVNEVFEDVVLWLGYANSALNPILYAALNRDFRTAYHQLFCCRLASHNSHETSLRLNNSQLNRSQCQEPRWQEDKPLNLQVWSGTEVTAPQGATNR

For the test, the target named is T1, histamine H2 receptor (Cavia porcellus, UniProt P47747).
T1 construct: guinea pig's enucleated atrium; from tissue; host or cells: guinea pig isolated ("enucleated") atrium
Put plainly: inhibition of the palpitation number of guinea pig's enucleated atrium (histamine antagonism). The note with it: compounds (I) as the oxalates, read-out: pA2 (negative logarithm of the concentration required to shift the dose-response of histamine to the high concentration side by 2-fold) (converted). Format: cell-based. The text has this:
The compounds (I) of the present invention and their pharmaceutically acceptable acid addition salts bind the active site of the histamine H2 receptor in competition with histamine to show a histamine H2 blocking activity.
The pA2 value is defined as a negative logarithm of the concentratio
of the compound (I) required to shift the doseresponse of histamine to th
high concentration side by 2fold. [Ariens, E.J., Molecular Pharmacology,
(1964), Academic Press, New York and London].

Each structure is given as a SMILES string.

For `CN/C(=N/CCSCc1nc[nH]c1C)NC#N` [Cimetidine, reference compound], the Kb was 0.234 µM.
